The values that follow come from ChEMBL document CHEMBL4002601, “A triple exon-skipping luciferase reporter assay identifies a new CLK inhibitor pharmacophore” (Bioorg Med Chem Lett, 2017).

Chains of the proteins cited; added tags and fusions are not shown. Lines headed by an entry give the natural chain unless they say otherwise; changes in a name come on top.
UniProt P49759: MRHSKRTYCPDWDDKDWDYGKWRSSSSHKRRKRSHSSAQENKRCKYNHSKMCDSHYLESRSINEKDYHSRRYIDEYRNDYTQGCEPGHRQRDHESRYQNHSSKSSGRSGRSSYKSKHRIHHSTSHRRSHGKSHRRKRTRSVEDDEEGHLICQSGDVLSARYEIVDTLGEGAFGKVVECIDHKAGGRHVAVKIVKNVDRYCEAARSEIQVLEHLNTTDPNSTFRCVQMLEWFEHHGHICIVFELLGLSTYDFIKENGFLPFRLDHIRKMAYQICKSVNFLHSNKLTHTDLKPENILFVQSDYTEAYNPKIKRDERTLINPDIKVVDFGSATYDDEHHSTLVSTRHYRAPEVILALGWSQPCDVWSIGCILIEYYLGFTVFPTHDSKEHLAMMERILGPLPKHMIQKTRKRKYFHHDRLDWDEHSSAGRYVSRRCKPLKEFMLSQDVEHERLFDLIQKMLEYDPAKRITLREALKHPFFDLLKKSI
UniProt O70551, whole entry: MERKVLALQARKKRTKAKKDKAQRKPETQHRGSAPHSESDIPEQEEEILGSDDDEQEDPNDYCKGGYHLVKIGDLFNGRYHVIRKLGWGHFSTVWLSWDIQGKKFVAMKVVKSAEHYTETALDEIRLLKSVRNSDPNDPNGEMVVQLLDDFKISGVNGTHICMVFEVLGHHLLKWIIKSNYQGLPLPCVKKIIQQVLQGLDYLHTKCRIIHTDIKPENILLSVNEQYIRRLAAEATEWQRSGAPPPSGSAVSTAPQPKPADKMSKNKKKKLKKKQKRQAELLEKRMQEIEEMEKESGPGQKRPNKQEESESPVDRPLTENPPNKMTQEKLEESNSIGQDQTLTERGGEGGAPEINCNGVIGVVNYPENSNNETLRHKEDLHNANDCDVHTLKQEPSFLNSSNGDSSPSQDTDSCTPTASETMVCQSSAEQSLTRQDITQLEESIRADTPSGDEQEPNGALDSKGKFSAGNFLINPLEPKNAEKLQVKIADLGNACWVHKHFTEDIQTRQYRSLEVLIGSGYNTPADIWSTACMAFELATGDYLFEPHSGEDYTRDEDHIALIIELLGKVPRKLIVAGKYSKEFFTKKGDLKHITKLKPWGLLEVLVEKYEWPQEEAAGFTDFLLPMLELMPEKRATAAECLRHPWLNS

Activity calls are given as the source filed them. The rule behind the calls is not given here.

What is called Ki is a measure of affinity in units of concentration, obtained from inhibition or displacement. Read a high Ki as weaker binding.

The target of experiment [1] is Dual specificity protein kinase CLK1 (Homo sapiens, UniProt P49759). Nature of the experiment: Inhibition of CLK mediated SF3B1 activation in human SK-MEL-2 cells assessed as MDM2-pre mRNA exon skipping at 10 uM after 4 hrs by luciferase reporter gene assay relative to control. Format: cell-based. For orientation: A reporter such as luciferase makes a cellular process visible.

The target of the next experiment is SRSF protein kinase 1 (Mus musculus, UniProt O70551). Put plainly: Inhibition of mouse His6-tagged SRPK1 expressed in Escherichia coli(BL21).

In the case of `CCn1cnc2c(Nc3cccc(Cl)c3)nc(N[C@@H]3CCCC[C@@H]3NC(C)=O)nc21` (racemic), the inhibition result in experiment [1] is “inactive”.

Turning to `COCCNc1nc(Nc2cccc(Cl)c2)c2ncn(C(C)C)c2n1`, the inhibition entry in experiment [1] is “inactive”.

`O=C(Nc1cc(C(F)(F)F)ccc1N1CCCCC1)c1ccncc1` showed a Ki on SRSF protein kinase 1 of 890 nM.
